## AlphaSeq binding of Ab-91 heavy chain variants to a spike HR2 peptide

Values reported by Engelhart et al. 2022, doi:10.1038/s41597-022-01779-4 (FLAb copy).

Target peptide (SARS-CoV-2 spike, HR2 region): PDVDLGDISGINAS

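The starting antibody came from a phage panning campaign against this peptide. Library AAYL51 holds single substitutions and randomly drawn double and triple substitutions in the CDRs. In AlphaSeq, yeast of one mating type display the scFv and yeast of the other type display the target. Binding brings cells together so that they mate, and sequencing counts the barcode pairs among the diploids. Read counts were normalised to the haploid input and turned into Kd by a linear fit to BCL2-family pairs of known affinity, for each replicate. The assay was run in three technical replicates.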

Parent scFv Ab-91: VL joined to VH by three GGGGS repeats. Changes lie in the heavy chain CDRs alone.
VL: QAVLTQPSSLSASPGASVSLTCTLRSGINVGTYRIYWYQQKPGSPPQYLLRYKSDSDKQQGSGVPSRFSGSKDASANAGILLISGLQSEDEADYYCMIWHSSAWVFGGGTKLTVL
VH: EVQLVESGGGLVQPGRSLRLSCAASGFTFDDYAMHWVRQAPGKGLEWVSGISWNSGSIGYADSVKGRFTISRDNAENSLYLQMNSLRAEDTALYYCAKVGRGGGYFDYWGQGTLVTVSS

Substitutions are numbered in sequence along the VH above, starting at 1 (not Kabat). Values are log10 of the apparent Kd in nM; lower means stronger binding. "ND" means that the variant was in the library but no mating with the target was seen in that replicate; the authors take this as a sign of poor binding, and no number exists.

| changes | log10 Kd (nM) by replicate | control signals |
|---|---|---|
| D31L/A61D | 2.73 / 2.94 / 2.95 | 5/9 (5.11) |
| D30N/N54R/I58P | 4.72 / 4.14 / 5.17 | 2/9 (3.86) |
| F27P/H35K/G100V | 4.92 / 6.42 / 4.63 | 7/9 (4.99) |
| A33F/N54S/S57V | 4.25 / 5.04 / 4.46 | 0/9 |
| G59V/R101T/D107P | 4.75 / 5.81 / 5.07 | 4/9 (5.28) |
| D30M/S52T/R101Q | 4.51 / ND / ND | 1/9 (3.71) |
| Y32F/M34N/Y105I | 5.31 / 4.19 / ND | 0/9 |
| F27L/I58T/D107T | 3.64 / ND / ND | 1/9 (5.71) |
| G59A/V99D/G102E | ND / ND / ND | 0/9 |
| H35G/G50I/D62M | ND / ND / ND | 3/9 (4.41) |
| G59F/R101Q/Y108N | 5.21 / 5.00 / 5.81 | 9/9 (3.72) |
| G26S/F29Y/M34S | ND / ND / ND | 0/9 |
| Y32E/K65Y | 4.09 / ND / ND | 3/9 (4.61) |
| G26Q/D31P/M34P | ND / ND / ND | 1/9 (3.20) |
| G26L/N54E/I58E | ND / ND / ND | 0/9 |
| T28S/Y105A/F106R | ND / ND / ND | 1/9 (3.73) |
| K65D/G103I/F106L | ND / ND / ND | 1/9 (2.81) |
| D31V/G50C/N54W | 3.98 / 4.34 / ND | 0/9 |
| G26V/G100K/R101N | 4.19 / ND / ND | 4/9 (4.12) |
| G50P/I51P/D62Q | ND / ND / ND | 0/9 |
| Y60N/F106R | ND / ND / ND | 1/9 (2.65) |
| G56S/S63Q/V64P | ND / ND / ND | 1/9 (4.87) |
| G26K/A33D | 5.56 / 4.39 / 5.22 | 7/9 (5.17) |
| G50S/S63E/F106S | 6.26 / ND / ND | 1/9 (5.55) |
| Y32P/R101M/G104R | 5.20 / ND / ND | 1/9 (3.43) |
| A33F/N54E/G104V | 3.34 / ND / ND | 1/9 (3.77) |
| G26K/D62T/G100A | ND / ND / ND | 1/9 (3.70) |
| D30I/G56H/G102N | ND / ND / ND | 0/9 |
| M34W/S55I/G56C | ND / ND / ND | 3/9 (4.32) |
| D30P/W53I/V99C | 3.19 / ND / 3.51 | 1/9 (2.97) |
| D30F/G104R | ND / ND / ND | 1/9 (2.14) |
| D31H/Y32H/F106R | 0.91 / 0.84 / 0.18 | 3/9 (4.93) |
| A33W/S57Y/Y108W | 3.99 / ND / ND | 2/9 (3.87) |
| S52V/W53F/G59W | ND / ND / ND | 2/9 (4.45) |
| T28E/I58Y/Y60D | 6.01 / 4.87 / ND | 5/9 (4.93) |
| S57E/G103T | 2.17 / 2.52 / ND | 0/9 |
| F27T/G50P/I58R | ND / ND / ND | 2/9 (4.44) |
| M34K/G104Y/Y108P | ND / ND / ND | 1/9 (5.12) |
| Y32S/G59C/A61N | 3.68 / 5.47 / ND | 2/9 (3.98) |
| G26D/N54L/K65Y | ND / ND / 4.76 | 1/9 (4.29) |
| G56F/G104N/F106H | 2.84 / 2.75 / 2.62 | 2/9 (3.84) |
| S52T/S63R/D107Y | 4.19 / ND / ND | 2/9 (3.78) |
| S63H/Y108N | 0.91 / 0.85 / 0.60 | 2/9 (4.96) |
| D31P/G103E/F106I | 4.60 / ND / ND | 3/9 (5.07) |
| D31K/H35Q/V64I | ND / ND / ND | 0/9 |
| H35T/I51L/D107S | 4.11 / 5.70 / ND | 2/9 (4.89) |
| N54G/Y60V/R101M | 4.08 / ND / ND | 0/9 |
| G100W/G103M/D107T | 4.57 / ND / ND | 1/9 (3.65) |
| G26M/I51D/S63Q | 4.13 / 4.10 / ND | 6/9 (4.34) |

Excerpt, the final 8 entries:

changes	log10 Kd (nM) by replicate	control signals
S52T/S63R/D107Y	4.19 / ND / ND	2/9 (3.78)
S63H/Y108N	0.91 / 0.85 / 0.60	2/9 (4.96)
D31P/G103E/F106I	4.60 / ND / ND	3/9 (5.07)
D31K/H35Q/V64I	ND / ND / ND	0/9
H35T/I51L/D107S	4.11 / 5.70 / ND	2/9 (4.89)
N54G/Y60V/R101M	4.08 / ND / ND	0/9
G100W/G103M/D107T	4.57 / ND / ND	1/9 (3.65)
G26M/I51D/S63Q	4.13 / 4.10 / ND	6/9 (4.34)

In this assay the parent's reference entry averaged 1.86; its copy inside this library read 0.88. Background: pairings of library AAYL51 with three empty control strains gave a value in 21% of cases (median 4.54, 5th percentile 3.26). Values in that range, when seen in few replicates, are hard to tell from nonspecific mating. The control count says in how many pairings with the empty strains this scFv gave a signal, with their mean in brackets.